From patent publication US7250397B2, “Antiarrhythmic peptides” (Zealand Pharma A/S, priority 2000, dated 2007)

Test system: phospho-inositol turnover in neonatal rat cardiomyocytes
Assay: Phosphoinositol turnover in rat primary cardiomyocytes
Type: cell-based
Details: 100 nM + noradrenaline 300 nM; anoxia and glucose deprivation
Procedure: Neonatal Wistar rats (1-2 days old) are used. Hank's calcium- and magnesium-free balanced salt solution, buffered with 10 mM HEPES is used for washing during cell separation procedures. The hearts are excised, the ventricles isolated and the tissue cut into small pieces. The myocardial cells are isolated by stepwise enzymatic degradation with collagenase 0.05%, as described by^[35]. After repeated rounds of centrifugation and washing, the precipitated cells are resuspended in culture medium M199 with Earle's salt, 10% NCS, penicillin (75 U/mL), and streptomycin (75 U/mL) and pre-plated in a Petri dish for 90 minutes. The non-adherent cells are collected in the culture medium and plated in multidishes at 2.5*10^5 cells/well. The cultures are kept in a water-saturated CO2-incubator at 37° C. The cardiomyocyte cultures are used for analyses after 6-7 days.
Cardiomyocyte cultures are incubated for 48 hours in culture medium containing […] myo-[2-^3H]inositol to label the inositol phospholipids. On the day of analysis the medium is replaced by a buffer solution containing lithium and incubated at 37° C., as described by Meier et al.^[36]. […] The [^3H]inositol mono-phosphates are eluted and radioactivity in the fraction measured by liquid scintillation counting. […]

Substance: Ac-D-Tyr-D-Pro-D-4Hyp-Gly-D-Ala-Gly-NH2 [Compound 2]
- increase in phospho-inositol turnover relative to the increase by noradrenaline alone: about 70%
